ChEMBL document CHEMBL1144422, “Symmetrical bis-quinolinium compounds: new human choline kinase inhibitors with antiproliferative activity against the HT-29 cell line” (J Med Chem, 2005)

The chains behind the UniProt entries cited, without tags or fusion partners.
UniProt P35790, whole entry: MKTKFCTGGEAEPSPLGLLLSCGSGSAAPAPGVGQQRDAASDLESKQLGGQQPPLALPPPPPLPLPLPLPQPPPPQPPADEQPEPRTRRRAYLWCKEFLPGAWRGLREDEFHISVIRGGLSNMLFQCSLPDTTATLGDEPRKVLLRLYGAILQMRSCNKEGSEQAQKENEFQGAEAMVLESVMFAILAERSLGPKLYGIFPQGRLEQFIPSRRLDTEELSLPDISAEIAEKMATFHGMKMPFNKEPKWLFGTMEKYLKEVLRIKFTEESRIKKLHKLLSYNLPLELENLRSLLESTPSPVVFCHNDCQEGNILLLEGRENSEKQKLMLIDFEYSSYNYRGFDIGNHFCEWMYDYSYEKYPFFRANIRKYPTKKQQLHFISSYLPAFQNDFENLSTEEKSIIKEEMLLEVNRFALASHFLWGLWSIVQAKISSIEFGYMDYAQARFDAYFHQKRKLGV

Target: Choline kinase alpha (Homo sapiens, UniProt P35790)
Test: Ex vivo inhibitory concentration against human choline kinase

## CN(c1ccc(Cl)cc1)c1cc[n+](Cc2cccc(-c3cccc(C[n+]4ccc(N(C)c5ccc(Cl)cc5)c5ccccc54)c3)c2)c2ccccc12
  IC50: 2100 nM
